Experiments:
Homo sapiens [1] = species on record: Homo sapiens; experiment: Selectivity index, ratio of Kd for human HSC70 H227A mutant to Kd for human wild type HSC70
Homo sapiens [2] = species on record: Homo sapiens; experiment: Selectivity index, ratio of Kd for human HSC70 Y149W mutant to Kd for human wild type HSC70
Homo sapiens [3] = species on record: Homo sapiens; experiment: Selectivity index, ratio of Kd for human HSC70 L228A mutant to Kd for human wild type HSC70
Homo sapiens [4] = species on record: Homo sapiens; experiment: Selectivity index, ratio of Kd for human HSC70 Y149A mutant to Kd for human wild type HSC70
Homo sapiens [5] = species on record: Homo sapiens; experiment: Selectivity index, ratio of Kd for human HSC70 T222A mutant to Kd for human wild type HSC70

CCn1c(=O)/c(=C2\Sc3cc(Br)ccc3N2C)s/c1=C\c1scc[n+]1Cc1ccc(C(F)(F)F)o1.[Cl-] was tested, and the Selectivity Index (Homo sapiens [1]) was 36.8, the Selectivity Index (Homo sapiens [2]) was 8.4 and the Selectivity Index (Homo sapiens [3]) was 20.9. For the same compound, the Selectivity Index (Homo sapiens [4]) was 3.6 and the Selectivity Index (Homo sapiens [5]) was 12.5.
